# Laboratory results reported in patent publication US11974988B2, “Neuroprotective compositions and methods of using the same” (The Board of Supervisors of Louisiana State Univer …, priority 2018, dated 2024).
# “And” between values parts separate entries of the source, which are not always exact repeats. Equal values may be shown once. “Also recorded” adds a separate entry of the source. Read-outs that look alike come from different tables or passages of the source.
# Key:
# [1] = tested on: glutamate transporters GLAST, GLT1 and EAAC1; conditions: read-out: EC50, enhancement of glutamate transporter activity; cited from earlier work
# [2] = tested on: activity-regulated Gln/MeAIB transport (SNAT activity) in hippocampal neurons; test: Activity-regulated (spontaneous, 4-AP- or K+-stimulated) [14C]-MeAIB transport in primary hippocampal neurons; assay type: cell-based, rat; set-up: block of transport activity: concentration or dose not given beside the values; conditions: for IC50: read-out: IC50 to inhibit activity-regulated Gln/MeAIB transport
# [3] = tested on: activity-regulated Gln/MeAIB transport (SNAT activity) in hippocampal neurons; conditions: read-out: IC50 to inhibit activity regulated Gln/MeAIB transport; cited from earlier work
structure (smiles),measurement,setting,value
Nc1nc2ccc(OC(F)(F)F)cc2s1 [riluzole],EC50,[1],> 100000 nM
same,"block of 4-AP stimulated 14C-MeAIB transport, in words",[2],blocked
same,block of transport activity,[2],~90%
same,"inhibition of spontaneous activity-regulated 14C-MeAIB transport, in words",[2],blocked spontaneous transport activity; also recorded: inhibited spontaneous transport activity
same,potency to block 4-AP stimulated transport less than potency to block spontaneous transport,[2],~3 fold
same,IC50,"[2]; Rattus norvegicus, Hippocampal neuron",1300 nM
same,inhibition at 10 µM,"[2]; Rattus norvegicus, Hippocampal neuron, read-out: block / inhibition of transport activity",~90%
same,IC50,[2],~1000 nM and 1000 nM
same,IC50,[3],1000 nM
